## Binding of CDR-mutated scFvs to a peptide of the spike HR2 region

Target peptide (SARS-CoV-2 spike, HR2 region): PDVDLGDISGINAS

The variants keep the light chain, the linker and the frameworks of Ab-14 (scFv order VH, three GGGGS repeats, VL).
VH: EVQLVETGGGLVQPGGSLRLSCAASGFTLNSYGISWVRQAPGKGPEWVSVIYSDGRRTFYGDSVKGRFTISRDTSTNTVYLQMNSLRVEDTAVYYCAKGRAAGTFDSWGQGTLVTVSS
VL: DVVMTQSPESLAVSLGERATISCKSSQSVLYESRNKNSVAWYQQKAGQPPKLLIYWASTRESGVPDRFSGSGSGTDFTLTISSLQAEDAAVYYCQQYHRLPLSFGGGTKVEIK

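This is the validation round: designs drawn from the data on random variants, tested in the same kind of assay. Several design methods are mixed in this list. Affinity was read by AlphaSeq, a pooled yeast mating assay with surface-displayed partners. Pairs that bind mate more often; barcode pairs of the diploids are counted by sequencing. A regression on co-assayed BCL2-family reference pairs converts the normalised counts of each replicate to an apparent Kd. There are six technical replicates.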

The parent's heavy chain CDRs are GFTLNSYGIS, VIYSDGRRTFYGDSVK, GRAAGTFDS; each variant's own CDRs replace them letter for letter.
The read-out is the apparent dissociation constant on a log10 scale (nM): the lower, the stronger.
A mean of the replicates is given; it leaves out those without a signal.
A pair that was not seen in any replicate is written "not detected"; this usually means weak binding, but a binder can also be missed.
The list is sorted by this average, lowest first, undetected variants last.
Where one sequence has several entries in the source, the replicates are pooled.
The range of this assay differs from that of the first round, and the authors advise against merging the two.
The authors averaged sequences with at least three values out of six and counted those with two or fewer as poor binders.
Empty control strains, which show no peptide, gave a signal in 1% of pairings with all heavy chain designs; the median was 2.08 and 95% of these signals were weaker than 0.84. No background was subtracted. The control count says in how many pairings with the empty strains this scFv gave a signal.

| mean log10 Kd (nM) | detected | signal with controls | CDR-H1 | CDR-H2 | CDR-H3 |
|---|---|---|---|---|---|
| -1.00 | 6/6 | 0/18 | GFDLNEYGIS | VIYADGRRTFYTDSVK | GANAGTFDK |
| -0.67 | 6/6 | 0/18 | GFDLNEYGIS | VIYADGRRTFYTDSVK | GQLAGTFDA |
| -0.57 | 6/6 | 0/18 | GFDLNEYGIS | VIYADGMRKAYADSVK | GNQAGTFDL |
| -0.52 | 6/6 | 0/18 | GFDLNEYGIS | VIYADGRRTAYADSVK | GGNAGTFDS |
| -0.50 | 6/6 | 0/18 | GFDLNEYGIS | VIYADGRRTSYIDSVK | GEQAGTFDV |
| -0.50 | 6/6 | 0/18 | GFDLDEYGIS | VIYADGRRTAYTDSVK | GNVAGTFDL |
| -0.47 | 6/6 | 0/18 | GFDLNEYGIS | VIYADGRRTSYKDSVK | GEHAGTFDV |
| -0.44 | 6/6 | 1/18 | GFDLNEYGIS | VIYADGKRTAYTDDVK | GNVAGTFDV |
| -0.43 | 6/6 | 0/18 | GFDLNEYGIS | VIYADGVRTAYADSVK | GTNAGTFDL |
| -0.40 | 6/6 | 0/18 | GFDLNEYGIS | VIYADGKRTAYLDSVK | GQLAGTFDT |
| -0.34 | 6/6 | 0/18 | GFDLNEYGIS | VIYADGMRTFYSDSVK | GNQAGTFDV |
| -0.34 | 6/6 | 1/18 | GFDLDEYGIS | VIYADGMRTFYADSVK | GNQAGTFDL |
| -0.29 | 6/6 | 0/18 | GFTLNSYGIS | VIYADGRRTFYGDSVK | GGAAGTFDS |
| -0.29 | 6/6 | 0/18 | GFDLNEYGIS | VIYADGRRTFYQDSVK | GESAGTFDQ |
| -0.27 | 6/6 | 0/18 | GFNLNEYGIS | VIYADGRRTFYADSVK | GEAAGTFDS |
| -0.24 | 6/6 | 0/18 | GFSLNEYGIS | VIYSDGRRTFYGDSVK | GTTAGTFDS |
| -0.23 | 6/6 | 0/18 | GFDLDEYGIS | VIYADGVRTAYADSVK | GGNAGTFDV |
| -0.20 | 6/6 | 0/18 | GFSLNEYGIS | VIYSDGRRTFYGDSVK | GRTAGTLDS |
| -0.11 | 6/6 | 0/18 | GFELNSYGIS | VIYSDGRRTFYGDSVK | GNTAGTFDT |
| -0.04 | 6/6 | 0/18 | GFDLNEYGIS | VIYADGKRTAYSDSVK | GQNAGTFDM |
| -0.03 | 6/6 | 0/18 | GFDLNEYGIS | VIYADGSRTAYADDVK | GTNAGTFDV |
| -0.02 | 6/6 | 0/18 | GFDLNSYGIS | VIYSDGRRTFYGDSVK | GRNAGTFDA |
| 0.00 | 6/6 | 0/18 | GFNLNSYGIS | VIYADGRRTFYGDSVK | GQAAGTFDT |
| 0.07 | 6/6 | 0/18 | GFDLDEYGIS | VIYADGRRTFYADSVK | GELAGTFFT |
| 0.11 | 6/6 | 0/18 | GFDLNEYGIS | VIYADGRRTAYSDSVK | GEAGGTFDQ |
| 0.14 | 6/6 | 1/18 | GFSLDSYGIS | VIYSDGRRTFYTDDVK | GRAAGTFDS |
| 0.14 | 6/6 | 0/18 | GFTLNEYGIS | VIYSDGRRTFYTDSVK | GNAAGTFDS |
| 0.16 | 6/6 | 1/18 | GFSLNDYGIS | VIYSDGKRTFYADSVK | GRAAGTFDS |
| 0.20 | 6/6 | 0/18 | GFQLNSYGIS | VIYSDGRRTFYGDNVK | GREAGTFDT |
| 0.23 | 5/12 | 0/36 | GFDLNSYGIS | VIYSDGRRTFYGDSVK | GQAGGTFDS |
| 0.30 | 6/6 | 0/18 | GFSLNSYGIS | VIYSDGRRTFYADSVK | GRVAGTFDQ |
| 0.32 | 6/6 | 0/18 | GFELNSYGIS | VIYSDGRRTFYGDSVK | GTTAGTFDV |
| 0.46 | 6/6 | 1/18 | GFELNSYGIS | VIYADGRRTFYGDSVK | GKAAGTFDD |
| 0.48 | 6/6 | 0/18 | GFELNEYGIS | VIYSDGRRTFYGDSVK | GRAAGTFDE |
| 0.51 | 5/6 | 0/18 | GFSLNEYGIS | VIYSDGRRTFYGDRVK | GRTAGTFDA |
| 0.56 | 6/6 | 0/18 | GFTLNSYGIS | VIYSDGVRTFYSDSVK | GQAAGTFDV |
| 0.58 | 1/6 | 0/18 | GFTLDSYGIS | VIYSDGRRTFYDDSVK | GQTAGTFDS |
| 0.62 | 2/6 | 0/18 | GFQLNDYGIS | VIYSDGRRTFYIDQVK | GKAAGTFDS |
| 0.75 | 6/6 | 0/18 | GFTLDDYGIS | VIYSDGLRTFYGDSVK | GLAAGTFES |
| 0.78 | 6/6 | 0/18 | KFDLNSYGIS | VIYSDGRRTAYGDSVK | GRAAGTFDS |
| 0.85 | 3/6 | 0/18 | GFTLNSYGIS | VIYSDGRRTFYGDSVR | GAAAGTFDS |
| 0.89 | 6/6 | 0/18 | GFTLNDYGIS | VIYSDGMRTQYIDSVK | GRAAGTFDS |
| 1.07 | 6/6 | 0/18 | GFTLNSYGIS | VIYSDGQRTFYSDSVK | GRAAGTFDS |
| 1.10 | 5/6 | 0/18 | YFSLNSYGIS | VIYSDGRRTFYADSVK | GEAAGTFDS |
| 1.16 | 6/6 | 0/18 | GFELNSYGIS | VIYSDGRRTFYVDSVK | GGVAGTFDT |
| 1.17 | 6/6 | 0/18 | GFDLNSYGIS | VIYSDGRRTFYVDTVK | GRTAGTFDS |
| 1.18 | 5/6 | 0/18 | GFQLNDYGIS | VIYSDGRRTFYKDQVK | GRTAGTFDS |
| 1.40 | 6/6 | 0/18 | GFDLNSYGIS | VIYSDGRRTFYGDSVK | GNAAGTFDD |
| 1.67 | 4/6 | 0/18 | GFTLNTYGIS | VIYSDGRRTFYGDSVK | GEAAGTFDS |
| 1.76 | 5/6 | 0/18 | GFILNSYGIS | VIYSDGRRTFYDDSVK | GQTAGTFDS |
| 1.81 | 1/6 | 0/18 | GFTVNSYGIS | VDYSDGRRTFYGDSVK | GRAAGTFDS |
| 2.11 | 1/6 | 0/18 | GFTLNSYGIS | VIYSDGRRTFYSDSVK | GRAAVTFDA |
| 3.11 | 1/6 | 2/18 | GFDLGEYGVS | VIYADGKRTFYADHVK | GVNAGFFDT |
| not detected | 0/6 | 1/18 | GFTLNSYGIS | VIYSDGMRTFNSDSLK | GRAGGTFDS |
| not detected | 0/6 | 0/18 | GFGLDEYGIS | VIYADGMRVVYTQDVK | GLYTFVKGI |
| not detected | 0/6 | 0/18 | GKQLDEYGIS | VIYADGKRTHYVENVK | GQFGSALFD |
| not detected | 0/6 | 1/18 | GATLNESGIS | VIYSDGRRTFYGNSVK | GRAAVTFDQ |
| not detected | 0/6 | 0/18 | GFTSNSYGYS | VIYADGRRTFYGDSVK | GRQAGTNKS |
| not detected | 0/6 | 0/18 | GFQLDEVGIS | VIYADGIRRAYASKVK | GGEAASFDL |
| not detected | 0/6 | 0/18 | GFDLQEMGIS | VIYADGARKSYTNSVK | GGFGGQMDV |
| not detected | 0/6 | 0/18 | GFTLNSYGIS | VIYSDGRRTFYGDSVK | GRAAKTFDS |
| not detected | 0/6 | 0/18 | GFTLNEYGIS | VIYSDGRRTFYQDSVK | GRAMGTFDS |
| not detected | 0/6 | 0/18 | GFTLNSYGIS | VIYSDGRRVFYGDSVK | GQEAGTFTS |
| not detected | 0/6 | 0/18 | GFNISEYGIS | VIYADGMRSNYADNVK | GHKGNAFID |
| not detected | 0/6 | 2/18 | GFNLDEFGIS | VIYADGNRTFYLDSFK | GTNVGTVDI |
| not detected | 0/6 | 0/18 | GFDLGEYGIS | VIYADGSRSAYATNVK | GGSGYKDDV |
| not detected | 0/6 | 0/18 | GFDLNSYGIS | VIYSDGRRTFYDDSVK | GQEAGTFDS |
| not detected | 0/6 | 0/18 | GFDINEMGIS | VIYADGQRLAYAQEVK | GKNTGTFTF |
| not detected | 0/6 | 0/18 | GFTLNSYGIS | VIYSDGRRTFTGDSVK | GRQADTFES |
| not detected | 0/6 | 1/18 | DFNLNEYGIS | VIYADGVRASYRNDVK | GQISGDFDL |
| not detected | 0/6 | 0/18 | GFDLNEYGIS | VIYADGRRTQYIDSVK | GGVAGTFDS |
| not detected | 0/6 | 0/18 | GTTLADYGIS | VIYSDGRRTFYGDSVK | GRAAGTFDC |
| not detected | 0/6 | 0/18 | GFSLDEYGIS | VIYADGLRTQYHPKVK | GLQGFIFDQ |
| not detected | 0/6 | 0/18 | GFDLDEYGIS | VIYADGMRSAIKENVK | GEISGTLNA |
| not detected | 0/6 | 0/18 | GFTLNSYGIS | VIYSDGRRTFYQDSVK | DRAAGTFDS |
| not detected | 0/6 | 0/18 | GEDLDEYGIS | VIYADGQRTAYDEAVK | GTIAGSFFH |
| not detected | 0/6 | 0/18 | GFDLNSYGIS | VIYSDGRRTFYCDRVK | GQAAGTFDS |
| not detected | 0/6 | 0/18 | GFDLNSYGIS | VIYSDGRRTFYGDSVK | GRAAGTFWS |
| not detected | 0/6 | 0/18 | GFDINEYGVS | VIYADGMRAAYTDSVK | GKGAWIALV |

Top 10 of the variants detected in all replicates, tightest first:

| CDR-H1 | CDR-H2 | CDR-H3 | mean log10 Kd (nM) | detected | signal with controls |
|---|---|---|---|---|---|
| GFDLNEYGIS | VIYADGRRTFYTDSVK | GANAGTFDK | -1.00 | 6/6 | 0/18 |
| GFDLNEYGIS | VIYADGRRTFYTDSVK | GQLAGTFDA | -0.67 | 6/6 | 0/18 |
| GFDLNEYGIS | VIYADGMRKAYADSVK | GNQAGTFDL | -0.57 | 6/6 | 0/18 |
| GFDLNEYGIS | VIYADGRRTAYADSVK | GGNAGTFDS | -0.52 | 6/6 | 0/18 |
| GFDLNEYGIS | VIYADGRRTSYIDSVK | GEQAGTFDV | -0.50 | 6/6 | 0/18 |
| GFDLDEYGIS | VIYADGRRTAYTDSVK | GNVAGTFDL | -0.50 | 6/6 | 0/18 |
| GFDLNEYGIS | VIYADGRRTSYKDSVK | GEHAGTFDV | -0.47 | 6/6 | 0/18 |
| GFDLNEYGIS | VIYADGKRTAYTDDVK | GNVAGTFDV | -0.44 | 6/6 | 1/18 |
| GFDLNEYGIS | VIYADGVRTAYADSVK | GTNAGTFDL | -0.43 | 6/6 | 0/18 |
| GFDLNEYGIS | VIYADGKRTAYLDSVK | GQLAGTFDT | -0.40 | 6/6 | 0/18 |

Source: Li et al. 2023 (doi:10.1038/s41467-023-39022-2), MIT Lincoln Laboratory and A-Alpha Bio; data file from the FLAb repository.